Chains of the proteins cited; added tags and fusions are not shown.
UniProt P49137, whole entry: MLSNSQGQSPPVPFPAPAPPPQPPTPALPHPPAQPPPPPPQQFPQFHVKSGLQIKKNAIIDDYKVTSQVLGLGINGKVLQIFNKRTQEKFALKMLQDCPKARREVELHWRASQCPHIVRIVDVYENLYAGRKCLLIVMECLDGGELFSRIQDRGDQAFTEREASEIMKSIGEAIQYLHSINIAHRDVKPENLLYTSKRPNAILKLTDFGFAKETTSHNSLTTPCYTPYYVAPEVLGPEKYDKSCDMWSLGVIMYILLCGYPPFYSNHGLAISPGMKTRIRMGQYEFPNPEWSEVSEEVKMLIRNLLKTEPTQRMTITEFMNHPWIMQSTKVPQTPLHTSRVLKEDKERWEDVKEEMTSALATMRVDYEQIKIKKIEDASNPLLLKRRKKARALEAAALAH

According to patent US11098057B2, “9,10,11,12-tetrahydro-8H-[1,4]diazepino[5′,6′:4,5]thieno[3,2-F]quinolin-8-one compounds and uses thereof” (Celgene CAR LLC, priority 2017, dated 2021):

Molecular target: MK2 protein (Homo sapiens, UniProt P49137)
Details: 10-fold excess of compound to protein, 60 minutes at room temperature, MALDI
Description: (§1) The procedure for this assay follows.
as §1

CCOCc1cnc(Cl)nc1Oc1ccc2c(ccc3sc4c(c32)NC[C@H](C)NC4=O)n1 [Compound I-82]
Mass Modification: F (mass modification of 31-69%)
